Earlier results as cited in patent US20190022240A1, “Design of pH-Sensitive Oligopeptide Complexes For Drug Release Under Mildly Acidic Conditions” (University of Southern California, priority 2013, published 2019).

Settings: in vivo

KLALKLALKALKAALKLA [MAP]
pharmacokinetic half-life: greater than 72 h
